Assay results reported in patent US10314847B2, “Scalarane sesterterpenoid, pharmaceutical composition and topoisomerase II and Hsp90 inhibitor for treating cancer, and use and preparation method thereof” (NATIONAL DONG HWA UNIVERSITY, priority 2017, dated 2019).

Protein sequences, listed by entry. Tags and fused reporters are not part of them. Lines headed by an entry give the natural chain unless they say otherwise; changes in a name come on top.
UniProt P11388: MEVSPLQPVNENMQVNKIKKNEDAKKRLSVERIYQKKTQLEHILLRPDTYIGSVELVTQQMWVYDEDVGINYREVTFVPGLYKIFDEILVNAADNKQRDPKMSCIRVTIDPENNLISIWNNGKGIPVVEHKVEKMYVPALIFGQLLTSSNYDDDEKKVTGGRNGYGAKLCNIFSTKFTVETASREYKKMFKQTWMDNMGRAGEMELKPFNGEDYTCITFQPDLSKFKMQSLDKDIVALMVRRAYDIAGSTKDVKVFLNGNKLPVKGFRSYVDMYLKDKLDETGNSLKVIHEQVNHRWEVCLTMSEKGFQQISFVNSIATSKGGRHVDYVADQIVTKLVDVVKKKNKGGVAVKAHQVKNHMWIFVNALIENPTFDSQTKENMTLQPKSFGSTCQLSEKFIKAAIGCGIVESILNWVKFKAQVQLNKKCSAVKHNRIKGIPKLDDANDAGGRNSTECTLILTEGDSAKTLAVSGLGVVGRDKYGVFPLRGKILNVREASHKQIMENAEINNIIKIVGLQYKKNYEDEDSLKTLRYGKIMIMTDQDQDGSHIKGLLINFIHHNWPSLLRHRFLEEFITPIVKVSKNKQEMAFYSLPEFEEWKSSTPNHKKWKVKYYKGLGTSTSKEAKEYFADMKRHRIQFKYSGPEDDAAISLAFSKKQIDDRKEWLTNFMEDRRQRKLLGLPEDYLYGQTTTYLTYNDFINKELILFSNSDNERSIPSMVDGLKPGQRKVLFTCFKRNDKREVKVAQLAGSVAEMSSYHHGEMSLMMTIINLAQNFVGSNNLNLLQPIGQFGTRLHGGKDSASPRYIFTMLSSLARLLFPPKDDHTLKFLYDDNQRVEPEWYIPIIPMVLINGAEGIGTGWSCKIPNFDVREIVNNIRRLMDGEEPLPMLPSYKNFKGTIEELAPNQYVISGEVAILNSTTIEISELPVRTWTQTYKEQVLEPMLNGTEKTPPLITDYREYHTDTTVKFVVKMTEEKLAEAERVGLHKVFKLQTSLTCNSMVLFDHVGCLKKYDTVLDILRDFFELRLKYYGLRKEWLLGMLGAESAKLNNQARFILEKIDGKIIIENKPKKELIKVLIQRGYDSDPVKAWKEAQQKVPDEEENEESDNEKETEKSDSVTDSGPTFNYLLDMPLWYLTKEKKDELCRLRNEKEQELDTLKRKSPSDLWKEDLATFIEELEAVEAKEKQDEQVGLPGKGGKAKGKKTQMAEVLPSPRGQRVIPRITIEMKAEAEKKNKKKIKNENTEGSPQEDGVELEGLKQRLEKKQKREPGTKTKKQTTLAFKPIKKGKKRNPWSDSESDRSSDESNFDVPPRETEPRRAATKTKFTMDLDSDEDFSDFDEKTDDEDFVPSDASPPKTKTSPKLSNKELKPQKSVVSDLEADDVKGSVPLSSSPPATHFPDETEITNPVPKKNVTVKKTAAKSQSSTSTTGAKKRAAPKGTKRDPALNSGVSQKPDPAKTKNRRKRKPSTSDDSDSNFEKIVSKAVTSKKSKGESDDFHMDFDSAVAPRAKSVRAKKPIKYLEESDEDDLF

Biological target: T1, human topoisomerase II (Homo sapiens, UniProt P11388)
T1 construct: purchased Topogen
Test: Assay of topoisomerase II catalytic inhibitors and poisons (cell-free pHOT1 DNA relaxation/cleavage)
Assay type: biochemical
Conditions: 500 μM, positive control
Protocol: Assay of Topoisomerase II Catalytic Inhibitors and Poisons:
The assay was performed as described in the literatures (Shih et al., Marine Drugs, 2014, 12(5):3072-3090 and Shih et al., Marine drugs, 2015, 13(5):3132-3153). Standard relaxation reaction mixtures (20 μL) containing 50 mM Tris-HCl (pH 8.0), 10 mM MgCl2, 200 mM potassium glutamate, 10 mM dithiothreitol, 50 μg/mL bovine serum albumin (BSA), 1 mM ATP, 0.3 μg of pHOT1 plasmid DNA, 2 units of human topoisomerase II (Topogen, Columbus, Ohio, U.S.A.), and the indicated concentrations of etoposide and the compounds 1 to 3 were incubated at 37° C. for 30 minutes. Reactions were terminated by adding 2 μL of 10% SDS to facilitate trapping the enzyme in a cleavage complex, followed by the addition of 2.5 μL of proteinase K (50 μg/mL) to digest the bound protein (incubated at 37° C. for 15 minutes) and finally by adding 0.1 volume of the sample loading dye. The DNA products were analyzed via electrophoresis through vertical 2% agarose gels at 2 voltage/cm in 0.5×TAE buffer. Gels were stained with ethidium bromide (EtBr) and photographed using an Eagle Eye II system (Stratagene, La Jolla, Calif., U.S.A.). The quantitative analysis of the DNA Topo II activity was performed. […]

COc1cc([C@@H]2c3cc4c(cc3[C@@H](O[C@@H]3O[C@@H]5CO[C@@H](C)O[C@H]5[C@H](O)[C@H]3O)[C@H]3COC(=O)[C@H]23)OCO4)cc(OC)c1O [etoposide, reference compound]
DNA product with supercoiled pHOT1 plasmid DNA (topo II poison): linear DNA strand was observed
